## Antibody variant affinities, Ab-14 heavy chain, assay B

Values reported by Li et al. 2023, doi:10.1038/s41467-023-39022-2 (FLAb copy).

Binding partner: SARS-CoV-2 spike HR2 peptide, sequence PDVDLGDISGINAS.

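This is the validation round: designs drawn from the data on random variants, tested in the same kind of assay. Group labels follow the data file (Ctrl: baseline library sampled from a position-specific scoring matrix, with some repeated check sequences; Rand: our label for a block that the file lists under HC and that is probably the random mutants of the ten best first-round binders; En: ensemble of fine-tuned language models; GP: Gaussian process model; GPLM: also part of the Gaussian process libraries; HC: hill climbing; Gen: genetic algorithm; Gibbs: Gibbs sampling; a sequence that several methods proposed may carry one label only). AlphaSeq pools MATa yeast showing the antibodies with MATalpha yeast showing the peptide. Mating (16 h, 30 °C) was followed by selection of diploids and sequencing of their barcodes. Scores were corrected for input abundance and mapped to Kd with protein pairs of known affinity run in the same pool. Each pool was mated in six replicate cultures.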

Parent scFv Ab-14: VH joined to VL by a (GGGGS)3 linker. Changes lie in the heavy chain CDRs alone.
VH: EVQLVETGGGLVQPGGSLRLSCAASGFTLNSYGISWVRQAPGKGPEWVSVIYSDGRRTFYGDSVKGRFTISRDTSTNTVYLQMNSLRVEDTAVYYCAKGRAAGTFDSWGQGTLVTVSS
VL: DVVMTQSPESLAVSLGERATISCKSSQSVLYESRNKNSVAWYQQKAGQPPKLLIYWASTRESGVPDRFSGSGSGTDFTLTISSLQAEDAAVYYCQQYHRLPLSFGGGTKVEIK

The parent's heavy chain CDRs are GFTLNSYGIS, VIYSDGRRTFYGDSVK, GRAAGTFDS; each variant's own CDRs replace them letter for letter.
Affinities are written as log10 Kd with Kd in nM; a lower number is a better binder.
A mean of the replicates is given; it leaves out those without a signal.
"n.d." means that the variant was in the library but no mating with the target was seen in that replicate; the authors take this as a sign of poor binding, and no number exists.
Order: sorted from the lowest average up, undetected variants last.
As a blank, each scFv also met three strains without target: over all heavy chain designs, 1% of these pairings were detected, typically at 2.08 and seldom below 0.84.
Values of this round are not directly comparable with the first-round values of the same sequences.
Of ten entries with the parent sequence, four were seen in most replicates (averages 0.34 to 2.37), three in one and three in none, so single entries are noisy.
In the paper, a design with two or fewer of six values counts as a poor binder.

CDR-H1,CDR-H2,CDR-H3,group,"log10 Kd, replicates","mean, log10 nM"
GFNLNEYGIS,VIYADGRRTFYADSVK,GNQAGTFIM,En_HC,-0.57 -1.35 -0.51 -0.52 n.d. -0.97,-0.78
GFDLNEYGIS,VIYADGMRTFYADSVK,GETAGTFDL,En_Gen,-0.60 -0.38 -0.49 -1.08 -0.70 -0.88,-0.69
GFDLNEYGIS,VIYADGMRTFYIDSVK,GNAAGTFDV,En_HC,-0.39 -0.38 -0.74 -0.76 -0.87 -0.64,-0.63
GFDLNEYGIS,VIYADGRRTQYIDSVK,GETAGTFDT,En_HC,-0.26 -0.68 -0.75 -0.60 -0.98 -0.09,-0.56
GFDLNEYGIS,VIYADGHRTFYSDSVK,GQNAGTFDA,En_HC,-0.34 -0.66 -0.52 -0.76 -0.57 -0.49,-0.56
GFDLNEYGIS,VIYADGRRTFYADDVK,GEVAGTFDL,En_HC,-0.31 -0.61 -0.61 -0.57 -0.58 -0.55,-0.54
GFSLNEYGIS,VIYSDGRRTFYTDSVK,GRNAGTFDS,GPLM_HC,-0.38 -0.52 -0.55 -0.76 -0.46 -0.35,-0.50
GFDLNEYGIS,VIYADGRRTFYADSVK,GEIAGTFDT,En_HC,-0.12 -0.45 -0.35 -0.53 -0.31 -0.16,-0.32
GFDLNEYGIS,VIYADGRRTFYSDSVK,GQTAGTFDE,En_HC,-0.53 -0.51 1.65 -0.95 -0.67 -0.55,-0.26
GFDLNEYGIS,VIYADGLRTAYADSVK,GENAGTFDT,En_Gen,0.55 -0.12 0.20 -0.72 -0.72 0.05,-0.13
GFDLNEYGIS,VIYADGMRTAYANDVK,GETAGTFDV,En_Gen,0.65 -0.21 -0.50 -0.37 -0.20 0.12,-0.09
GFDLEEYGIS,VIYADGMRTAYADSVK,GENAGTFDI,En_Gen,0.00 -0.09 -0.31 -0.15 -0.31 0.36,-0.08
GFSLNDYGIS,VIYSDGRRTFYGDTVK,GRTAGTFDS,GPLM_Gen,0.08 0.15 -0.18 -0.31 0.05 0.41,0.03
GFDLNEYGIS,VIYADGRRTAYVDSVK,GQVAGIFNV,En_HC,0.01 0.32 0.64 0.19 0.02 0.53,0.29
GFDLNEYGIS,VIYADGVRTFYVDSVK,GETAGTFDV,En_HC,0.77 -0.08 0.40 0.05 0.18 0.49,0.30
GFTLNEYGIS,VIYSDGRRTFYGDSVK,GRFAGTFDA,GP_HC,0.42 0.15 0.08 -0.16 0.84 1.03,0.39
GFTLNSYGIS,VIYSDGRRTFYGDSVK,GEVAGTFDT,GPLM_Gen,0.75 0.52 0.12 0.27 0.41 0.76,0.47
GFNLEEYGIS,VIYADGMRSEYTDNVK,GHKGNWFQD,En_Gibbs,0.82 0.30 0.53 0.87 0.11 0.54,0.53
GFDLNSYGIS,VIYSDGRRTFYADHVK,GEAAGTFDS,GP_Gibbs,0.90 0.67 0.58 0.03 0.30 0.71,0.53
GFVLNSYGIS,VIYSDGRRTFYADDVK,GNVAGTFDS,GP_Gibbs,0.87 0.25 0.74 0.47 1.60 0.23,0.70
SFSLNSYGIS,VIYADGRRTFYGDSVK,GRAAGTFDS,GP_HC,n.d. n.d. 0.33 0.94 1.32 n.d.,0.86
GFSLNSYGIS,VIYSDGRRTFYTDSVK,GEAAGTFDK,GPLM_Gibbs,0.60 1.00 1.30 0.91 1.64 0.57,1.00
GFDLNEYGIS,VIYADGMRTAYADSVK,GENGGTFDV,En_Gen,1.14 n.d. 1.96 n.d. n.d. n.d.,1.55
GFSLNSYGIS,VIYSDGRRTFYGDSVK,GWEAGTFDS,GP_Gen,n.d. 1.08 1.02 1.91 n.d. 2.31,1.58
GYDLQDYGIS,VIYADGVRAFYHDSFK,GQLAGTFLL,En_Gibbs,n.d. n.d. n.d. n.d. n.d. 1.82,1.82
GFTLNSYGIS,VIYSDGRRTFYGDSVK,GQVAGTFDM,GP_Gen,1.88 1.76 1.83 2.27 1.53 2.62,1.98
GFTLNDYGIS,VIYSDGRRTFYGDSVK,GRCAGTFDT,GPLM_HC,1.82 n.d. n.d. 2.68 n.d. 2.39,2.30
GFDLNSYGIS,VIYSDGRRTFYHDSVK,GRAAGIFNS,GP_HC,n.d. n.d. n.d. n.d. 2.88 n.d.,2.88
GFTLNDYGIS,VIYSDGIRTFYGDSVK,GRTAGTFIS,GPLM_HC,3.74 n.d. n.d. n.d. n.d. n.d.,3.74
GVTLNEYGIS,VIYCRGRRTFYGDSVK,GRAAVTFDQ,Rand,n.d. n.d. n.d. n.d. n.d. n.d.,n.d.
GFNLDEYGIS,VIYADGNRVFYADTVK,GLLGIGYSV,En_Gibbs,n.d. n.d. n.d. n.d. n.d. n.d.,n.d.
GFTLNEYGIL,VIYSDGRRTFYTDSVK,GRFAGTFDS,Rand,n.d. n.d. n.d. n.d. n.d. n.d.,n.d.
GFTLNDYGIS,VIYSDGRRTFYGDDVK,TRAAGTFDS,Ctrl,n.d. n.d. n.d. n.d. n.d. n.d.,n.d.
GFTLNEYGIS,VIYSDGRRTMYSDSVK,GRAGGTFDS,GP_HC,n.d. n.d. n.d. n.d. n.d. n.d.,n.d.
GDDLNEYGIS,VIYADGRRSAYTDNVK,GHAGNIFMS,En_Gibbs,n.d. n.d. n.d. n.d. n.d. n.d.,n.d.
GFDLDEYGIS,VIYADGKRTAYANDVK,GEVAGTFDV,En_Gen,n.d. n.d. n.d. n.d. n.d. n.d.,n.d.
GFELQEYGIS,VIYADGMRAAYSDNVK,GDNRGIFHM,En_Gibbs,n.d. n.d. n.d. n.d. n.d. n.d.,n.d.
GFDLDQYGIS,VIYADGIRSVYADAVK,GHEGGIFLV,En_Gibbs,n.d. n.d. n.d. n.d. n.d. n.d.,n.d.
GFTLNSYGWL,VIYSTGRRTFYSDSVK,GRAGGTFDS,Rand,n.d. n.d. n.d. n.d. n.d. n.d.,n.d.
GFTLNSYGIS,VIYSDGRRWFYDDSVK,GQLAGTFDS,GPLM_HC,n.d. n.d. n.d. n.d. n.d. n.d.,n.d.
GYTLNSYGIS,VIYSDGRRTSYGDSVK,GRAAGCFDS,Ctrl,n.d. n.d. n.d. n.d. n.d. n.d.,n.d.
GFTLNEYGIS,VIYSDGRRTFYYDSVK,GRFAGTFDT,GP_HC,n.d. n.d. n.d. n.d. n.d. n.d.,n.d.

Excerpt, the final 5 entries:

CDR-H1,CDR-H2,CDR-H3,group,"log10 Kd, replicates","mean, log10 nM"
GFDLDQYGIS,VIYADGIRSVYADAVK,GHEGGIFLV,En_Gibbs,n.d. n.d. n.d. n.d. n.d. n.d.,n.d.
GFTLNSYGWL,VIYSTGRRTFYSDSVK,GRAGGTFDS,Rand,n.d. n.d. n.d. n.d. n.d. n.d.,n.d.
GFTLNSYGIS,VIYSDGRRWFYDDSVK,GQLAGTFDS,GPLM_HC,n.d. n.d. n.d. n.d. n.d. n.d.,n.d.
GYTLNSYGIS,VIYSDGRRTSYGDSVK,GRAAGCFDS,Ctrl,n.d. n.d. n.d. n.d. n.d. n.d.,n.d.
GFTLNEYGIS,VIYSDGRRTFYYDSVK,GRFAGTFDT,GP_HC,n.d. n.d. n.d. n.d. n.d. n.d.,n.d.